The entries are a selection whose mix differs from that of the whole data set. Calls of active or inactive are those of the source.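 Rule for the calls: active = inhibition above about 55% (limit read from the data); inconclusive = no clear call, values can overlap the other calls; inactive = the rest.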
experiment: LAMP-1 surface exposure blockers, TALL-104 cells – cell-based, flow cytometry, MLPCN library, primary screen (AID 651702); details: TALL-104 LAMP-1 surface exposure, at 10 µM, hits give high values, cells stimulated with thapsigargin and PMA

Structure (SMILES)	inhibition
Cc1ccc(NC2(C#N)CCN(Cc3ccccc3)CC2)cc1	inactive: 1.2%
Fc1ccccc1NC1CCN(Cc2ccccc2)CC1	inactive: 5.2%
Cc1ccc(C(=O)NCC2(N3CCCCC3)CCCCC2)o1	inactive: 3.5%
COc1ccc(C(c2nnnn2C2CCCCC2)N2CCC(n3c(=O)[nH]c4ccccc43)CC2)cc1 (configuration not stated)	inactive: 0.5%
CCN1CCC(Nc2cccc(F)c2)CC1	inactive: 3.7%
CC(C)(C)n1nnnc1C(c1ccnc2ccccc12)N1CCC(n2c(=O)[nH]c3ccccc32)CC1 (configuration not stated)	inactive: -10.9%
Cc1ccccc1NC1(C#N)CCN(Cc2ccccc2)CC1	inactive: -4.5%
CN(C)c1ccc(C(=O)NCC2(N3CCCCC3)CCCCC2)cc1	inactive: -2.5%
Cn1c(=O)[nH]cc(N(CCCl)CCCl)c1=O	inactive: 5.8%
O=C(NCC1(N2CCCCC2)CCCCC1)c1ccco1	inactive: 21.2%
CN1CCC(Nc2ccc(F)c(Cl)c2)CC1	inactive: 5%
CCOc1ncccc1C(=O)NCC1(N2CCOCC2)CCCCC1	inactive: 6.2%
O=c1[nH]c2ccccc2n1C1CCN(C(c2cc3ccccc3o2)c2nnnn2C2CCCC2)CC1 (configuration not stated)	inactive: -7.8%
CCCOc1ccc(C(=O)NCC2(N(C)C)CCCCC2)cc1	inactive: 2.8%
O=C(O)C1(Nc2ccccc2)CCN(Cc2ccccc2)CC1	inactive: 8.7%
NN(c1ccccc1)C1CCN(CCc2ccccc2)CC1	inactive: 3.4%
CC(C)(C)OC(=O)N1CCC(Nc2ccccc2)CC1	inactive: -2.5%
CCC(CO)(C(=O)OC1CN2CCC1CC2)c1ccccc1 (configuration not stated)	inactive: 1.7%
COc1cccc(C(c2nnnn2C2CCCC2)N2CCC(n3c(=O)[nH]c4ccccc43)CC2)c1OC (configuration not stated)	inactive: -0.9%
COc1cc(OC)cc(C(=O)NCC2(N3CCOCC3)CCCCC2)c1	inactive: 0.6%
COc1cccc(C(=O)N(c2cc(C)cc(C)c2)C2CCN(C(=O)OC(C)(C)C)CC2)c1	inactive: 4.7%

Structure (SMILES)	inhibition
CN1CCC(Nc2ccc(Cl)cc2)CC1	inactive: 7.4%
CCCCn1nnnc1C(CC)N1CCC(n2c(=O)[nH]c3ccccc32)CC1 (configuration not stated)	inactive: -3.8%
O=C(NCC1(N2CCCCC2)CCCCC1)c1cccs1	inactive: -3.3%
CCCCn1nnnc1C(c1cccs1)N1CCC(n2c(=O)[nH]c3ccccc32)CC1 (configuration not stated)	inactive: 4.4%
O=C(NCC1(N2CCCCC2)CCCCC1)c1ccc(=O)[nH]c1	inactive: -3.4%
COc1ccc(C(=O)NCC2(N3CCCCC3)CCCCC2)c(OC)c1OC	inactive: -2.6%
CC(C)(C)OC(=O)N1CCC(N(C(=O)c2ccccc2)c2ccc(F)cc2)CC1	inactive: -4.3%
CCC(c1nnnn1C1CCCC1)N1CCC(n2c(=O)[nH]c3ccccc32)CC1 (configuration not stated)	inactive: -4.7%
COc1ccc(C(=O)NCC2(N3CCCCC3)CCCCC2)cc1	inactive: -5.2%
Cc1cccc(NC2(C#N)CCN(Cc3ccccc3)CC2)c1	inactive: -1.2%
CSc1ccccc1C(=O)NCC1(N2CCCCC2)CCCCC1	inactive: 3.9%
O=C(NCC1(N2CCOCC2)CCCCC1)c1cc2ccccc2o1	inactive: -3.4%
Cc1cc(C)cc(N(C(=O)c2ccccc2)C2CCN(C(=O)OC(C)(C)C)CC2)c1	inactive: 14.7%
O=C(NCC1(N2CCCCC2)CCCCC1)c1ccc(Cl)nc1	inactive: 0.6%
O=c1[nH]c2ccccc2n1C1CCN(C(c2ccccc2OC(F)(F)F)c2nnnn2C2CCCCC2)CC1 (configuration not stated)	inactive: -5.9%
CCCCn1nnnc1C(c1ccc(OC)cc1)N1CCC(n2c(=O)[nH]c3ccccc32)CC1 (configuration not stated)	inactive: -3.3%
CCOC(=O)N1CCC(Nc2ccc(OC)cc2)CC1	inactive: -7.2%
COc1ccc(Cl)cc1C(=O)NCC1(N2CCOCC2)CCCCC1	inactive: -0.7%
N#CC1(Nc2ccccc2)CCN(Cc2ccccc2)CC1	inactive: -5.7%
O=C(NCC1(N2CCCCC2)CCCCC1)c1ccc(Cl)s1	inactive: -2.3%
O=C(OC1CN2CCC1CC2)C1c2ccccc2Oc2ccccc21 (configuration not stated)	inactive: 5.5%

Structure (SMILES)	inhibition
O=c1[nH]c2ccccc2n1C1CCN(C(c2cc3ccccc3o2)c2nnnn2C2CCCCC2)CC1 (configuration not stated)	inactive: -7.1%
CCOc1ccc(C)cc1CN(CCCl)CCCl	inactive: -9.3%
O=C1CCN(Cc2ccccc2)CC1	inactive: 12.9%
CC(C)(C)n1nnnc1C(c1ccccc1)N1CCC(n2c(=O)[nH]c3ccccc32)CC1 (configuration not stated)	inactive: -1.7%
COc1ccc(NC2CCN(CCc3ccccc3)CC2)c(OC)c1	inactive: 5%
CCOC(=O)N1CCC(Nc2ccc(F)cc2)CC1	inactive: 0.5%
O=P1(N(CCCl)CCCl)SCCCS1	inactive: 16.2%
CCCCn1nnnc1C(c1cc2ccccc2o1)N1CCC(n2c(=O)[nH]c3ccccc32)CC1 (configuration not stated)	inactive: 0.1%
CCCCOc1ccc(C(=O)NCC2(N3CCOCC3)CCCCC2)cc1	inactive: 3.3%
O=C(NCC1(N2CCCCC2)CCCCC1)c1ccc(F)cc1	inactive: -2.1%
O=c1[nH]c2ccccc2n1C1CCN(C(c2ccccc2)c2nnnn2C2CCCCC2)CC1 (configuration not stated)	inactive: -3.3%
O=c1[nH]c2ccccc2n1C1CCN(C(c2cccc3ccccc23)c2nnnn2C2CCCC2)CC1 (configuration not stated)	inactive: 8.9%
CCOC(=O)N1CCC(Nc2cccc(C)c2)CC1	inactive: -5.3%
COc1cc(C(=O)NCC2(N(C)C)CCCCC2)ccc1OC(F)F	inactive: 14.4%
O=C(NCC1(N2CCCCC2)CCCCC1)c1ccc(OC(F)F)cc1	inactive: 5.9%
CC(C)(C)n1nnnc1C(c1ccccc1OC(F)(F)F)N1CCC(n2c(=O)[nH]c3ccccc32)CC1 (configuration not stated)	inactive: -2.1%
CSc1ccc(C(=O)NCC2(N3CCOCC3)CCCCC2)cc1	inactive: -1.6%
O=C(NCC1(N2CCCCC2)CCCCC1)c1cccc([N+](=O)[O-])c1	inactive: 1.6%
O=c1[nH]c2ccccc2n1C1CCN(C(c2ccccc2OC(F)(F)F)c2nnnn2C2CCCC2)CC1 (configuration not stated)	inactive: 10.9%
N#CC1(Nc2ccccc2)CCN(CCc2ccccc2)CC1	inactive: -0.9%
